From patent US20200317660A1, “Quinazolinone Compound and Application Thereof” (LUOXIN PHARMACEUTICAL (SHANGHAI) CO., LTD., priority 2017, published 2020)

By UniProt entry, the sequences of proteins in these tests, tags left out. Where a name states a change or a piece, a line headed by the entry shows the natural chain unless it says otherwise.
UniProt P42336, whole entry: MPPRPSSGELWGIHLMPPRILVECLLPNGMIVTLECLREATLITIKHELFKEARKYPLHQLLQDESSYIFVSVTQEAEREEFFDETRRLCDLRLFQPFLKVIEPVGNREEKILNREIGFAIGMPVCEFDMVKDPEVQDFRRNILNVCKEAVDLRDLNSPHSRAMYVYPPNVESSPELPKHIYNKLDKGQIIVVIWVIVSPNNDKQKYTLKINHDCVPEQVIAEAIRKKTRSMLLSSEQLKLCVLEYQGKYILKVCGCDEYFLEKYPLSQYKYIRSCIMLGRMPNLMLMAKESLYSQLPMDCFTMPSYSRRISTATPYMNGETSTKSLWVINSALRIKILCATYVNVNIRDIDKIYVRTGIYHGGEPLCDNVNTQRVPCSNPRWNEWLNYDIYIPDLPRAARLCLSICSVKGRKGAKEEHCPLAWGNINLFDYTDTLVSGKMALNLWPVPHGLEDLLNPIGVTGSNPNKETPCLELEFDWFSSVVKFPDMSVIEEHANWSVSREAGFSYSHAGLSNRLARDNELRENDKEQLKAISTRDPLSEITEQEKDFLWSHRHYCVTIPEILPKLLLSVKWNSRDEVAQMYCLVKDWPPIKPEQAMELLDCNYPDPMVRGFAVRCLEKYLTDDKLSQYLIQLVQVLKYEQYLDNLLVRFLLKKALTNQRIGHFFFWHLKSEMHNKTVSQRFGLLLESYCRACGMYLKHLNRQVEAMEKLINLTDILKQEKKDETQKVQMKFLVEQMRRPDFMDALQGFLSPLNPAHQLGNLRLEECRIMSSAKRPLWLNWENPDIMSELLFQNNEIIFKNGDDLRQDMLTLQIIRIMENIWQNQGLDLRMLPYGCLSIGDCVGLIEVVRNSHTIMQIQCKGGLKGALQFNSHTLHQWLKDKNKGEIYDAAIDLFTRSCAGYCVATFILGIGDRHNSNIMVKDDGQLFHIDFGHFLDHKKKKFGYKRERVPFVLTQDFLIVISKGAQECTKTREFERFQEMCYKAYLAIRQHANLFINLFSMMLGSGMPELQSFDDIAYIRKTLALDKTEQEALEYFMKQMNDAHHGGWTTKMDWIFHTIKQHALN
UniProt P42338, whole entry: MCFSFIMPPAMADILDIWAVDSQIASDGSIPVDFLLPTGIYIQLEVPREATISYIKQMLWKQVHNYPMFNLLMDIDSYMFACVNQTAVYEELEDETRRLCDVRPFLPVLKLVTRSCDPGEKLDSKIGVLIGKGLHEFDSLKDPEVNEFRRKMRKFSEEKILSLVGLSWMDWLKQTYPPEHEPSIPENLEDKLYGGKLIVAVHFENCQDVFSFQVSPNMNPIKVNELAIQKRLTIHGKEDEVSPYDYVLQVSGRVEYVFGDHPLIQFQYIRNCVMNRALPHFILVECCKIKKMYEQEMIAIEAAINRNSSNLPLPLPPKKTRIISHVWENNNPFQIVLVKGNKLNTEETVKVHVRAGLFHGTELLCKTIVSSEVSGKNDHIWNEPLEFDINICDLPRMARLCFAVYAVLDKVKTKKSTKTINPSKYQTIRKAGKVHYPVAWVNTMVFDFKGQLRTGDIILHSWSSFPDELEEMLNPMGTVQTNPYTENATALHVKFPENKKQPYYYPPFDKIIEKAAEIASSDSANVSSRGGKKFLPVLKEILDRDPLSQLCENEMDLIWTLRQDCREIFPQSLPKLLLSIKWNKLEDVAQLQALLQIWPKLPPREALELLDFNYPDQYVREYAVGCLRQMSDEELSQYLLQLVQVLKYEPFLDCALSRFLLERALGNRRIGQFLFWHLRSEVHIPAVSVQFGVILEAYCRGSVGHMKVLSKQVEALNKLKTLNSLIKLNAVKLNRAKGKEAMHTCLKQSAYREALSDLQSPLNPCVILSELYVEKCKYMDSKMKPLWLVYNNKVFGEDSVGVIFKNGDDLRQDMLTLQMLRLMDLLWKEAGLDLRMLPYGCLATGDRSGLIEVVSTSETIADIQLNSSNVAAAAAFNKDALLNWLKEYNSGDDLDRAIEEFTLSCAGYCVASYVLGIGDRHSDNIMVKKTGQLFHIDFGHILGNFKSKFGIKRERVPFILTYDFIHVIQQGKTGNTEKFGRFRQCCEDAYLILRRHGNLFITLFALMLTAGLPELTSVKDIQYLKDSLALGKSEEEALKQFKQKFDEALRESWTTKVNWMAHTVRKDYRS
UniProt O00329, whole entry: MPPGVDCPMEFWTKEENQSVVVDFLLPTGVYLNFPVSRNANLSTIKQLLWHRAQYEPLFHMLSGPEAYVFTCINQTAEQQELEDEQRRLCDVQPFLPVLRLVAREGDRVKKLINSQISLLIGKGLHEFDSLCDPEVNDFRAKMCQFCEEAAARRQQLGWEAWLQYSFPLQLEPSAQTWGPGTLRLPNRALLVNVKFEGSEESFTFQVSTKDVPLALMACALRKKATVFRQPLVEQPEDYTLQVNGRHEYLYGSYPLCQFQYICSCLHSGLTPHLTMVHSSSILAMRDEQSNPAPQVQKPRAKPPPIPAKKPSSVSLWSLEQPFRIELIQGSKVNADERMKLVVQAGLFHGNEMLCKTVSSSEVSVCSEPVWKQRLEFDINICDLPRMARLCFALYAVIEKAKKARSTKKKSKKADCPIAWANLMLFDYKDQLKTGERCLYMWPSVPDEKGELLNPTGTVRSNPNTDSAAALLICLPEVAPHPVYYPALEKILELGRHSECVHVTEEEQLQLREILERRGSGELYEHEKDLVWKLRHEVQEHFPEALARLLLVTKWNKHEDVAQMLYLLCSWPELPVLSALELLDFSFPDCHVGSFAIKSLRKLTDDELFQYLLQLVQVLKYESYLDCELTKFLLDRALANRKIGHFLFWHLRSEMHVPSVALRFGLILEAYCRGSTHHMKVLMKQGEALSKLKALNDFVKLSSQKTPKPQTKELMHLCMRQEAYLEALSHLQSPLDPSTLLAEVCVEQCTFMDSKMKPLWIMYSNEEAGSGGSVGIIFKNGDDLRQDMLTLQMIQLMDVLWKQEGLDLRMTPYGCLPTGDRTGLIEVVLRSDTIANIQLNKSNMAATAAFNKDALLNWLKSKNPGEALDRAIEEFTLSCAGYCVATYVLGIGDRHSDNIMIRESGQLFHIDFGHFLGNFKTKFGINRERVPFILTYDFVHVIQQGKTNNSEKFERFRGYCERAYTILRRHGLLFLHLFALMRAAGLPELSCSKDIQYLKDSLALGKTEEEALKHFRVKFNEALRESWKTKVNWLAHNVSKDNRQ
UniProt P48736, whole entry: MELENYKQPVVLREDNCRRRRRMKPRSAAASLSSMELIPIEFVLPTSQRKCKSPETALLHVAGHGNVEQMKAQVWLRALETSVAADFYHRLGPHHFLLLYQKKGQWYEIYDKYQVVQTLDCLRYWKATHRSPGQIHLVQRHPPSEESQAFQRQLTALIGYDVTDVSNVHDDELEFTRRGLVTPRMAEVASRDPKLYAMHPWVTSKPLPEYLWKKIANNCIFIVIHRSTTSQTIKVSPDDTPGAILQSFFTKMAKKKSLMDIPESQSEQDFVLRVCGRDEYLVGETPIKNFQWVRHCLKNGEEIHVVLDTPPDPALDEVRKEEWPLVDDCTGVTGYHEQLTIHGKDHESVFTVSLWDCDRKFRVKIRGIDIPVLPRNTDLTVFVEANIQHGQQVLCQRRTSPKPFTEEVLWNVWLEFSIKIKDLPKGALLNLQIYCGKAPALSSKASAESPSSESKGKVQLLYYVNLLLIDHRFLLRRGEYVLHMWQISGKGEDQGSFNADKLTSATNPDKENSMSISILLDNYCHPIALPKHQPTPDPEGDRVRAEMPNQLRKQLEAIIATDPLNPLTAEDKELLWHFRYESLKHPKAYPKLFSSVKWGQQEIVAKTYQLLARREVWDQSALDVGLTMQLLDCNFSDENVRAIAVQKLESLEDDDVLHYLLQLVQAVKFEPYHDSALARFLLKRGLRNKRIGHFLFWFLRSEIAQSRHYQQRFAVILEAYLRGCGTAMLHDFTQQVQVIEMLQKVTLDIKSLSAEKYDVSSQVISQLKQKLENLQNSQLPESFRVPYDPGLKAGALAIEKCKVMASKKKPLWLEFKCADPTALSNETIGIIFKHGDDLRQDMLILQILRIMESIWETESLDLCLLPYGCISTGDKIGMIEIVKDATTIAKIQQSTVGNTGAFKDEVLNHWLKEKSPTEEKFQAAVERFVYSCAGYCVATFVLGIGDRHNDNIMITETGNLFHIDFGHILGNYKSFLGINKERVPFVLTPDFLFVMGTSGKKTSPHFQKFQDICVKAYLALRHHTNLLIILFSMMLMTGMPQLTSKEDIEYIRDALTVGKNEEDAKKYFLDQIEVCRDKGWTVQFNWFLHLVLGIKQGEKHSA
UniProt P27986, whole entry partner: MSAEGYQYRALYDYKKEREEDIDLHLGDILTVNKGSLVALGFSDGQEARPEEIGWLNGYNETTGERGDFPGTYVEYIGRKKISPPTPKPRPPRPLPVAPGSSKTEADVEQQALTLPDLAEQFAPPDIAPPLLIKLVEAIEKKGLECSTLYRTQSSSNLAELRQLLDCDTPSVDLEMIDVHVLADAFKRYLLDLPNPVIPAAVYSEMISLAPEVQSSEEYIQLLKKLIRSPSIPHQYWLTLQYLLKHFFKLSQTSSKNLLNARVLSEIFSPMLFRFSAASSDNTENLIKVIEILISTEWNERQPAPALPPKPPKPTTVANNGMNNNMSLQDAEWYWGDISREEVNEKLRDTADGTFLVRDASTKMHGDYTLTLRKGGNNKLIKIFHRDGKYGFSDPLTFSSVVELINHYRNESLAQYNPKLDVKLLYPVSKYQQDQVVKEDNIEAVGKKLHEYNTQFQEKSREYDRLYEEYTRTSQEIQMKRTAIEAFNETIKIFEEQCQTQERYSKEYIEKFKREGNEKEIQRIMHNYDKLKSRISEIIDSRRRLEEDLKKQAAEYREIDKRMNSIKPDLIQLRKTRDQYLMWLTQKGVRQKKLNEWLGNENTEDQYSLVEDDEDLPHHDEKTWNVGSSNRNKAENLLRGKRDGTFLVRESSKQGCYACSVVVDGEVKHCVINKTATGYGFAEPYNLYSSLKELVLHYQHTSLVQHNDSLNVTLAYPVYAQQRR

Assays:
[1] = target: PI3Kα (Homo sapiens, UniProt P42336); experiment: In vitro test of enzyme activity (ADP-Glo lipokinase), PI3K alpha; conditions: read-out: PI3Kα IC50, 40 μM ATP, 50 μM PIP2:3PS, 120 min
[2] = target: PI3Kβ (Homo sapiens, UniProt P42338); experiment: In vitro test of enzyme activity (ADP-Glo lipokinase), PI3K beta; conditions: read-out: PI3Kβ IC50, 40 μM ATP, 50 μM PIP2:3PS, 120 min
[3] = target: PI3Kδ (Homo sapiens, UniProt O00329); experiment: In vitro test of enzyme activity (ADP-Glo lipokinase), PI3K delta; conditions: read-out: PI3Kδ IC50, 40 μM ATP, 50 μM PIP2:3PS, 120 min
[4] = target: PI3Kγ (Homo sapiens, UniProt P48736); experiment: In vitro test of enzyme activity (ADP-Glo lipokinase), PI3K gamma; conditions: read-out: PI3Kγ IC50, 25 μM ATP, 50 μM PIP2:3PS, 120 min
[5] = tested on: phosphorylation of PI3K downstream protein Akt in MCF7 cells; experiment: In vitro test of cells activity: ELISA of Akt phosphorylation in MCF7 cells; conditions: read-out: MCF7 Cell IC50, 2 h compound, insulin 10 μg/mL stimulation, pAkt ELISA
[6] = In vivo DMPK study in mice after a single administration; parameters: species or system female Balb/c mice; conditions: for Cmax / Oral DNAUC (area under the dose normalization curve): oral, 10 mpk; for F % (oral bioavailability): oral 10 mpk vs intravenous 1 mg/kg
[7] = tested on: human breast cancer BT-474 cells; experiment: Subcutaneous xenograft tumor model of human breast cancer BT-474 cells; conditions: BT-474 xenograft, 30 mpk
[8] = tested on: human ovarian cancer SK-OV-3 cells; experiment: Subcutaneous xenograft tumor model of human ovarian cancer SK-OV-3 cells; conditions: SK-OV-3 xenograft, 30 mpk

**Q.** Which IC50 [1] does the source give for `COc1ncc(-c2ccc3ncn(CC(C)C(N)=O)c(=O)c3c2)cc1NS(=O)(=O)c1ccc(F)cc1Cl` (single isomer, unassigned) [WX019] here?
**A.** 2.75 nM

**Q.** And the IC50 [2]?
**A.** 116 nM

**Q.** And the IC50 [3]?
**A.** 9.22 nM

**Q.** What about the IC50 [4] of the same compound?
**A.** 8.18 nM

**Q.** And the IC50 [5]?
**A.** 23.9 nM

**Q.** What about the Cmax ([6]; 10 mg/kg) of the same compound?
**A.** 3.8 µM

**Q.** And the “Oral DNAUC (area under the dose normalization curve)” value ([6]; 10 mg/kg)?
**A.** 1386 nM · h/mpk

**Q.** Which results are given for `CNC(=O)C(C)Cn1cnc2ccc(-c3cnc(OC)c(NS(=O)(=O)c4ccc(F)cc4Cl)c3)cc2c1=O` (single isomer, unassigned) [WX031]?
**A.** IC50 [2]: 271 nM; IC50 [3]: 13.9 nM; IC50 [4]: 13.8 nM; Cl (clearance rate) ([6]; intravenous 1 mg/kg): 4.16 mL/min/kg; Vd (apparent volume of distribution) ([6]; intravenous 1 mg/kg): 0.179 L/kg; F % (oral bioavailability) [6]: 59.4%; Oral DNAUC (area under the dose normalization curve) [6]: 4228 nM · h/mpk; TGI % [7]: 82.3%; TGI % [8]: 86.0%

**Q.** Which IC50 [1] does the source give for `CNC(=O)[C@H]1C[C@H](n2cnc3ccc(-c4cnc(OC)c(NS(=O)(=O)c5ccc(F)cc5Cl)c4)cc3c2=O)C1` here?
**A.** 1.04 nM

**Q.** And the IC50 [2]?
**A.** 36.4 nM

**Q.** What about the IC50 [3] of the same compound?
**A.** 0.94 nM

**Q.** And the IC50 [4]?
**A.** 3.06 nM

**Q.** What about the IC50 [5] of the same compound?
**A.** 10.8 nM

**Q.** And the Cmax [6]?
**A.** 5.12 µM

**Q.** And the “Oral DNAUC (area under the dose normalization curve)” value [6]?
**A.** 18467 nM · h/mpk

**Q.** With `CNC(=O)C(C)Cn1cnc2ccc(-c3cnc(OC)c(NS(=O)(=O)c4ccccc4C(F)(F)F)c3)cc2c1=O` (single isomer, unassigned) [WX099] as the compound, how does the IC50 [1] read?
**A.** 1.67 nM

**Q.** What about the IC50 [2] of the same compound?
**A.** 323 nM

**Q.** What about the IC50 [3] of the same compound?
**A.** 12.4 nM

**Q.** And the IC50 [4]?
**A.** 19.3 nM

**Q.** And the IC50 [5]?
**A.** 132 nM

**Q.** What about the “Cl (clearance rate)” value ([6]; intravenous 1 mg/kg) of the same compound?
**A.** 13.2 mL/min/kg

**Q.** And the “Intravenous injection T1/2” value ([6]; intravenous 1 mg/kg)?
**A.** 18.3 min

**Q.** What about the “Vd (apparent volume of distribution)” value ([6]; intravenous 1 mg/kg) of the same compound?
**A.** 0.280 L/kg

**Q.** What about the “F % (oral bioavailability)” value [6] of the same compound?
**A.** 36.4%

**Q.** What about the Cmax [6] of the same compound?
**A.** 6.67 µM

**Q.** And the “Oral DNAUC (area under the dose normalization curve)” value [6]?
**A.** 791 nM · h/mpk

**Q.** What does the source list for `CNC(=O)C(C)Cn1cnc2ccc(-c3cnc(OC)c(NS(=O)(=O)c4cc(C)ccc4F)c3)cc2c1=O` (single isomer, unassigned) [WX173]?
**A.** IC50 [1]: 1.21 nM; IC50 [2]: 146 nM; IC50 [3]: 10.4 nM; IC50 [4]: 17.4 nM; IC50 [5]: 15.7 nM; Cmax [6]: 26.3 µM; Oral DNAUC (area under the dose normalization curve) [6]: 4703 nM · h/mpk

**Q.** What does the source list for `CNC(=O)C(Cn1cnc2ccc(-c3cnc(OC)c(NS(=O)(=O)c4ccc(F)cc4Cl)c3)cc2c1=O)OC` (single isomer, unassigned) [WX046]?
**A.** IC50 [1]: 1.99 nM; IC50 [2]: 96.7 nM; IC50 [3]: 2.75 nM; IC50 [4]: 9.33 nM; IC50 [5]: 26.6 nM; Cmax ([6]; 10 mg/kg): 14.9 µM; Oral DNAUC (area under the dose normalization curve) ([6]; 10 mg/kg): 1504 nM · h/mpk

**Q.** Which results are given for `CNC(=O)[C@H]1C[C@@H](n2cnc3ccc(-c4cnc(OC)c(NS(=O)(=O)c5ccc(F)cc5Cl)c4)cc3c2=O)C1`?
**A.** IC50 [1]: 2.44 nM; IC50 [2]: 42.1 nM; IC50 [3]: 1.44 nM; IC50 [4]: 7.93 nM; IC50 [5]: 24.4 nM; Cmax [6]: 1.74 µM; Oral DNAUC (area under the dose normalization curve) [6]: 3687 nM · h/mpk

**Q.** Which IC50 [1] does the source give for `CNC(=O)C(C)Cn1cnc2ccc(-c3cnc(OC)c(NS(=O)(=O)c4cccc(C)c4Cl)c3)cc2c1=O` (single isomer, unassigned) here?
**A.** 1.8 nM

**Q.** And the IC50 [2]?
**A.** 345 nM

**Q.** What about the IC50 [3] of the same compound?
**A.** 17.3 nM

**Q.** And the IC50 [4]?
**A.** 16.7 nM

**Q.** What about the IC50 [5] of the same compound?
**A.** 27.1 nM

**Q.** And the Cmax [6]?
**A.** 8.52 µM

**Q.** What about the “Oral DNAUC (area under the dose normalization curve)” value [6] of the same compound?
**A.** 1070 nM · h/mpk

**Q.** With `CNC(=O)C(C)Cn1cnc2ccc(-c3cnc(OC)c(NS(=O)(=O)c4ccc(F)cc4F)c3)cc2c1=O` (single isomer, unassigned) [WX089] as the compound, how does the Cmax [6] read?
**A.** 20.3 µM

**Q.** And the “Oral DNAUC (area under the dose normalization curve)” value [6]?
**A.** 3477 nM · h/mpk

**Q.** What about the TGI % [7] of the same compound?
**A.** 77.6%

**Q.** Which results are given for `CNC(=O)C(C)Cn1cnc2ccc(-c3cnc(OC)c(NS(=O)(=O)c4ccccc4Cl)c3)cc2c1=O` (single isomer, unassigned) [WX147]?
**A.** IC50 [1]: 1.6 nM; IC50 [2]: 222 nM; IC50 [3]: 8.7 nM; IC50 [4]: 15.8 nM; IC50 [5]: 19.1 nM; Cmax [6]: 19.9 µM; Oral DNAUC (area under the dose normalization curve) [6]: 1947 nM · h/mpk

**Q.** Which IC50 [1] does the source give for `CNC(=O)C(Cn1cnc2ccc(-c3cnc(OC)c(NS(=O)(=O)c4ccc(F)cc4Cl)c3)cc2c1=O)OC` (single isomer, unassigned) [WX047] here?
**A.** 2.67 nM

**Q.** What about the IC50 [2] of the same compound?
**A.** 118 nM

**Q.** And the IC50 [3]?
**A.** 7.37 nM

**Q.** And the IC50 [4]?
**A.** 16.1 nM

**Q.** And the IC50 [5]?
**A.** 7.85 nM

**Q.** And the Cmax ([6]; 10 mg/kg)?
**A.** 14.1 µM

**Q.** What about the “Oral DNAUC (area under the dose normalization curve)” value ([6]; 10 mg/kg) of the same compound?
**A.** 1540 nM · h/mpk

**Q.** Which IC50 [1] does the source give for `CNC(=O)C(C)Cn1cnc2ccc(-c3cnc(OC)c(NS(=O)(=O)c4cc(C)ccc4C)c3)cc2c1=O` (single isomer, unassigned) [WX170] here?
**A.** 3.14 nM

**Q.** What about the IC50 [2] of the same compound?
**A.** 668 nM

**Q.** And the IC50 [3]?
**A.** 29.6 nM

**Q.** What about the IC50 [4] of the same compound?
**A.** 66.1 nM

**Q.** And the IC50 [5]?
**A.** 1.2 nM

**Q.** What about the Cmax [6] of the same compound?
**A.** 10.9 µM

**Q.** What about the “Oral DNAUC (area under the dose normalization curve)” value [6] of the same compound?
**A.** 885.0 nM · h/mpk
